Patent US8648068B2, “Heterocycloalkyl-containing thienopyrimidines for pharmaceutical compositions” (Boehringer Ingelheim International GmbH, priority 2010, dated 2014)

By UniProt entry, the sequences of proteins in these tests, tags left out.
UniProt Q9HBH9, whole entry: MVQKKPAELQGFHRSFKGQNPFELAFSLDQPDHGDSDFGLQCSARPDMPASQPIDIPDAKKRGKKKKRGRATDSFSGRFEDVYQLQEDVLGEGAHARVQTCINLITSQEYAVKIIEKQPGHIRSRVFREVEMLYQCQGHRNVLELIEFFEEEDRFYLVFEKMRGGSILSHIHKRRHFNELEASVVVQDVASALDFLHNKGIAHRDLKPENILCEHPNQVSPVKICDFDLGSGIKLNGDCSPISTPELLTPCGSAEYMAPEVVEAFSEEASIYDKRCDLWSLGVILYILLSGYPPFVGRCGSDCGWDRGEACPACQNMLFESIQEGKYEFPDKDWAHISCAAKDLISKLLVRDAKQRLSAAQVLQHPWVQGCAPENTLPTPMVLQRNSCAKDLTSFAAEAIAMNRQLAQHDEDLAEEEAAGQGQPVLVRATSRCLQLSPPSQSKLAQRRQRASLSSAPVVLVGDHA

target: human Mnk2a (Homo sapiens, UniProt Q9HBH9); experiment: Mnk2a in vitro kinase assay (indirect fluorescence polarization); conditions: read-out: MNK2 IC50; GST-Mnk2a pre-activated with ERK2, 20 μM ATP, 30 μM substrate peptide
Procedure: Inhibitory potency of compounds against Mnk1, Mnk2a and other kinases was assessed with assays based on a format known to those skilled in the art as the indirect (competitive) fluorescence polarization. The assay detection system comprises a small fluorophore-labeled phospho-peptide (termed ligand) bound to a phospho-specific antibody. The product generated by the kinase reaction competes with the ligand for antibody binding. Based on the larger molecular volume of the bound ligand, which results in a lower rotation rate in solution, its emitted light has a higher degree of polarization than the one from the free ligand.
As a source of enzyme, human Mnk1 and human Mnk2a were expressed as GST fusion proteins in E. coli, purified to >80% homogeneity by glutathione affinity chromatography and activated in vitro with pre-activated ERK2. In brief, the open reading frames of human Mnk1 and Mnk2a were amplified from cDNA using the forward/reverse primer pairs
(utilized restriction sites underlined), respectively, and cloned into the BamHI and SalI sites of the vector pGEX-4T1 (Amersham, Sweden, cat. no. 27-4580-01). These constructs allow prokaryotic expression of Mnk1 or Mnk2a as fusion protein with a N-terminal glutathione S-transferase (GST) tag, referred to as GST-Mnk1 or GST-Mnk2a. The following expression and purification procedure was identical for GST-Mnk1 and GST-Mnk2a, referring in general to GST-Mnk, when not distinguishing between the two isoforms. Expression of GST-Mnk was in E. coli BL21 (Merck Biosciences, Germany, cat. no. 69449). Cells were grown in LB-Bouillon (Merck, Germany, cat. no. 1.10285) supplemented with 100 μg/ml ampicillin (Sigma, Germany, cat. no. A9518) at 37° C. When the culture had reached a density corresponding to an A600 of 0.8, an equal volume of ice cold LB/ampicillin was added, the culture transferred to 25° C. and induced for 4 h with 1 mM isopropyl thiogalactoside (IPTG, Roth, Germany, cat. no. 2316.4). Cells harvested by centrifugation were resuspended in 10 ml lysis buffer (50 mM tris(hydroxymethyl)aminomethane hydrochloride (Tris/HCl, Sigma, Germany, cat. no. T5941) pH 7.5, 300 mM sodium chloride (NaCl, Sigma, Germany, cat. no. S7653), 5% (w/v) glycerol (Sigma, Germany, cat. no. G5516), 3 mM DTT dithiotreitol (DTT, Sigma, Germany, cat. no. D9779)) per gram wet weight cell pellet. Lysates were prepared by disruption of cells with a sonifier and subsequent clearing by centrifugation at 38000 g for 45 min at 4° C.
The lysate was applied to a GSTPrep FF 16/10 column (Amersham, Sweden, cat. no. 17-5234-01) equilibrated with lysis buffer. Removal of unbound material was with 3 column volumes (CV) lysis buffer. Elution was with 2 CV of elution buffer (50 mM Tris/HCl pH 7.5, 300 mM NaCl, 5% (w/v) glycerol, 20 mM glutathione (Sigma, Germany, cat. no. G4251)). Peak fractions were pooled and the protein transferred into storage buffer (50 mM Tris/HCl pH 7.5, 200 mM NaCl, 0.1 mM ethylene glycol-bis(2-aminoethylether)-N,N,N′,N′-tetraacetic acid (EGTA, Aldrich, Germany, cat. no. 23, 453-2), 1 mM DTT, 10% (w/v) glycerol, 0.5 M sucrose (Sigma, Germany, cat. no. SO389) by gel filtration on a PD10 desalting column (Amersham, Sweden, cat. no. 17-0851-01). Aliquots were shock frozen in liquid nitrogen and stored at −80° C.
Activation of Mnk1 and Mnk2a was at a concentration of 2.5 μM of either purified GST-Mnk1 or GST-Mnk2a by incubation with 150 nM pre-activated NHis-ERK2 (see ERK2 assay for preparation) and 50 μM adenosine triphosphate (ATP, Sigma, cat. no. A2699) in a buffer comprising 20 mM N-(2-hydroxyethyl)piperazine-N′-(2-ethanesulfonic acid) (HEPES, Fluka, Germany, cat. no 54459)/potassium hydroxide (KOH, Roth, Germany, cat. no 6751.1) pH 7.4, 10 mM magnesium chloride (MgCl2, Sigma, Germany, cat. no. M2670), 0.25 mM DTT, 0.05% (w/v) polyoxyethylene 20 stearylether (Brij 78, Sigma, Germany, cat. no. P4019) (HMDB buffer) for 45 min at 30° C. […]

First: Cc1c(C(=O)NCC2CNC2)sc2ncnc(Nc3ccc(F)cc3OC3CCOCC3)c12
Second: Cc1c(C(=O)NC2CNC2)sc2ncnc(Nc3ccc(F)cc3OC3CCOCC3)c12
The IC50 of the first is 2-fold lower: 42 nM for the first, 84 nM for the second. The first is the more potent here.

Compared with Cc1c(C(=O)NC2CCNC2)sc2ncnc(Nc3ccc(F)cc3OC3CCOCC3)c12 (stereo not drawn), Cc1c(C(=O)NC2CCCNC2)sc2ncnc(Nc3ccc(F)cc3OC3CCOCC3)c12 (stereo not drawn) is 5.8-fold lower in IC50: 70 nM for the first, 12 nM for the second. The second is the more potent here.

Cc1c(C(=O)NC2CCN(C)CC2)sc2ncnc(Nc3ccc(F)cc3O[C@@H]3CCOC3)c12 and Cc1c(C(=O)NC2CCCN(C(=O)OC(C)(C)C)CC2)sc2ncnc(Nc3ccc(F)cc3O[C@@H]3CCOC3)c12 (stereo partly drawn) are within 1.5-fold of each other in IC50: 53 nM for the first, 38 nM for the second.

Going from Cc1c(C(=O)NCC2COCCN2)sc2ncnc(Nc3ccc(F)cc3OC3CCOCC3)c12 (stereo not drawn) to Cc1c(C(=O)NCCC2CCCN2)sc2ncnc(Nc3ccc(F)cc3OC3CCOCC3)c12 (stereo not drawn), the IC50 falls from 53 nM to 35 nM (1.5-fold). The second is the more potent here.

Cc1c(C(=O)NCc2ccccc2)sc2ncnc(Nc3ccc(F)cc3OC3CCCNC3)c12 (stereo not drawn) [Example 27] showed an IC50 of 76 nM.
